Reference: patent publication US5650442A, “Use of nitric oxide releasing compounds as hypoxic cell radiation sensitizers” (priority 1994, dated 1997)

Tested on: Chinese hamster V79 lung fibroblasts
Experiment: Radiation survival of hypoxic V79 monolayers gassed with nitrogen and exposed to NO gas
Assay type: cell-based
Settings: hypoxic cell radiosensitization
Method: Hypoxic Chinese hamster V79 lung fibroblasts of Example 2 were irradiated at room temperature with 4 MeV photons from a linear accelerator at a dose rate of 1.5 Gy/min. Full electron equilibrium was ensured for all irradiations.
Following irradiation, the various cell suspensions were pipetted, counted, diluted, and plated for macroscopic colony formation. Each dose determination was plated in triplicate and experiments were repeated a minimum of two times. Plates were incubated for seven days, after which colonies were fixed with methanol/acetic acid (3:1), stained with crystal violet, and counted. Colonies containing >50 cells were scored and graphed as FIGS. 1-3. Error bars in the graphs represent the standard deviation of the mean and are shown when larger than the symbol used to designate a data point. Survival curve data were fitted using a linear quadratic model of Albright (Radiat. Res., 112, 331-340 (1987)), and the survival curves shown in the figures represent the best fit curves for the experimental data points. Sensitizer enhancement ratios (SER) were calculated by dividing the radiation dose for control hypoxic conditions by the radiation dose for various agents under hypoxic conditions at the 1% surviving fraction level.

nitric oxide [NO gas]
k value (concentration required to yield half the maximum effect): 10^4 ppm
